Values quoted from earlier work, collected in PubChem BioAssay AID1811.
One block for each compound: values may come before it.

Legend:
Experiment in all cases: PubChem AID 1811
[1] = target: FK506 binding protein; conditions: PDB complex binding affinities from literature; Ki when reported
[2] = target: cathepsin g; conditions: PDB complex binding affinities from literature; IC50 when reported
[3] = target: fatty acid-binding protein; conditions: PDB complex binding affinities from literature; Kd when reported
[4] = target: beta-lactamase; conditions: PDB complex binding affinities from literature; Ki when reported
[5] = target: beta-lactamase ctx-m-9; conditions: PDB complex binding affinities from literature; Ki when reported
[6] = target: thrombin; conditions: PDB complex binding affinities from literature; Ki when reported
[7] = target: nadph-flavin oxidoreductase; conditions: PDB complex binding affinities from literature; Kd when reported
[8] = target: maltodextrin binding protein; conditions: PDB complex binding affinities from literature; Ki when reported
[9] = target: methionine aminopeptidase; conditions: PDB complex binding affinities from literature
[10] = target: anaerobic ribonucleotide-triphosphate reductase; conditions: PDB complex binding affinities from literature; Kd when reported
[11] = target: epoxide hydrolase; conditions: PDB complex binding affinities from literature; Ki when reported
[12] = target: thermolysin; conditions: PDB complex binding affinities from literature; Ki when reported
[13] = target: pol polyprotein; conditions: PDB complex binding affinities from literature
[14] = target: Serine/threonine-protein kinase PLK1; conditions: PDB complex binding affinities from literature; IC50 when reported
[15] = target: uracil phosphoribosyltransferase; conditions: PDB complex binding affinities from literature; Kd when reported
[16] = target: beta-n-acetylhexosaminidase; conditions: PDB complex binding affinities from literature; Ki when reported
[17] = target: metalloproteinase; conditions: PDB complex binding affinities from literature; Ki when reported
[18] = target: isocitrate dehydrogenase; conditions: PDB complex binding affinities from literature; Ki when reported
[19] = target: beta-hydroxysteroid dehydrogenase; conditions: PDB complex binding affinities from literature; Ki when reported
[20] = target: Gag-Pol polyprotein (Pr160Gag-Pol); conditions: PDB complex binding affinities from literature; Kd when reported
[21] = target: maltose-binding periplasmic protein; conditions: PDB complex binding affinities from literature; Kd when reported
[22] = target: thrombin pro; conditions: PDB complex binding affinities from literature; Ki when reported
[23] = target: beta-lactamase tem; conditions: PDB complex binding affinities from literature; Ki when reported
[24] = target: membrane lipoprotein tmpc; conditions: PDB complex binding affinities from literature; Kd when reported
[25] = target: Polycomb protein Scm; conditions: PDB complex binding affinities from literature; Kd when reported
[26] = target: metallo-beta-lactamase; conditions: PDB complex binding affinities from literature; Ki when reported
[27] = target: phosphoglycerate kinase; conditions: PDB complex binding affinities from literature; Ki when reported
[28] = target: collagenase 3 (mmp-13); conditions: PDB complex binding affinities from literature; IC50 when reported
[29] = target: secretase beta; conditions: PDB complex binding affinities from literature; Ki when reported
[30] = target: heat shock protein 90 alpha; conditions: PDB complex binding affinities from literature; IC50 when reported
[31] = target: retinoic acid receptor rxr-alpha; conditions: PDB complex binding affinities from literature; Ki when reported
[32] = target: calpain; conditions: PDB complex binding affinities from literature; Ki when reported
[33] = target: avidin; conditions: PDB complex binding affinities from literature; Kd when reported
[34] = target: poly (adp-ribose) polymerase; conditions: PDB complex binding affinities from literature; IC50 when reported
[35] = target: hiv-1 integrase; conditions: PDB complex binding affinities from literature; IC50 when reported

- Ki [1]: 0.019 µM
Structure (SMILES): COc1cc(C(F)(F)C(=O)N2CCCC[C@H]2C(=O)O[C@@H](CCCc2ccccc2)CCCc2cccnc2)cc(OC)c1OC

- IC50 [2]: 4.1 µM
Structure (SMILES): O=C(c1ccc2ccccc2c1)[C@@H](c1cccc2ccccc12)P(=O)(O)O

- Kd [3]: 0.0534 µM
Structure (SMILES): CC/C=C\C/C=C\C/C=C\C/C=C\C/C=C\C/C=C\CCC(=O)O

- Ki [4]: 0.02 µM
- Ki [5]: 0.015 µM
Structure (SMILES): CC(C)(O/N=C(\C(=O)N[CH2][Al])c1csc(N)n1)C(=O)O

- Ki [6]: 11 µM
Structure (SMILES): N=C(N)c1ccc2nc(-c3cccc(-c4ccccc4)c3O)[nH]c2c1

- Kd [7]: 0.17 µM
Structure (SMILES): Cc1cc2nc3c(=O)[nH]c(=O)nc-3n(CC(O)[C@H](O)[C@H](O)COP(=O)(O)O)c2cc1C (some centres undefined)

- Ki [8]: 2.3 µM
Structure (SMILES): OC[C@H]1O[C@H](O[C@H]2[C@H](O)[C@@H](O)[C@@H](O[C@H]3[C@H](O)[C@@H](O)[C@@H](O[C@H]4[C@H](O)[C@@H](O)[C@@H](O)O[C@@H]4CO)O[C@@H]3CO)O[C@@H]2CO)[C@H](O)[C@@H](O)[C@@H]1O

- IC50 ([9]; IC50 when reported): 2.14 µM
Structure (SMILES): CS(=O)(=O)Nc1cccc2cccnc12

- Kd [10]: 19 µM
Structure (SMILES): Nc1ncnc2c1ncn2[C@H]1C[C@H](O)[C@@H](COP(=O)(O)OP(=O)(O)OP(=O)(O)O)O1

- Ki [11]: 0.017 µM
Structure (SMILES): O=C(Nc1ccc(I)cc1)NC1CCCCC1

Structure (SMILES): CC(C)C[C@H](NP(=O)(O)O[C@@H]1O[C@@H](C)[C@H](O)[C@@H](O)[C@H]1O)C(=O)N[C@@H](Cc1c[nH]c2ccccc12)C(=O)O
- Ki [12]: 0.028 µM

- Kd ([13]; Kd when reported): 0.002 µM
Structure (SMILES): CC(C)CN(C[C@@H](O)[C@H](Cc1ccccc1)NC(=O)O[C@H]1CCOC1)S(=O)(=O)c1ccc(N)cc1

- IC50 [14]: 155 µM
Structure (SMILES): Nc1ncnc2c1ncn2C1O[C@H](COP(=O)(O)OP(=O)(O)NP(=O)(O)O)[C@@H](O)[C@H]1O (some centres undefined)

- Kd [15]: 465 µM
Structure (SMILES): Nc1nc2c(ncn2[C@@H]2O[C@H](COP(=O)(O)OP(=O)(O)OP(=O)(O)O)[C@@H](O)C2O)c(=O)[nH]1 (some centres undefined)

- Ki [16]: 0.28 µM
Structure (SMILES): CC1=N[C@@H]2[C@@H](O)[C@H](O)[C@@H](CO)O[C@@H]2S1

- Ki ([13]; Ki when reported): 0.024 µM
Structure (SMILES): CCCC[C@H](NC(=O)[C@H](C)NC(=O)[C@H](CCC(=O)O)NC(=O)[C@H](Cc1ccccc1)NC[C@H](CC(C)C)NC(=O)[C@@H](NC(=O)[C@@H](N)CCCN=C(N)N)C(C)C)C(N)=O

- Ki ([9]; Ki when reported): 0.4 µM
Structure (SMILES): c1ccc2[nH]c(-c3cscn3)nc2c1

- Ki [17]: 169 µM
Structure (SMILES): NC(=O)CC[C@H](NC(=O)[C@@H]1CCC(=O)N1)C(=O)N[C@@H](Cc1c[nH]c2ccccc12)C(=O)O

- Ki [18]: 189 µM
Structure (SMILES): O=C(O)C[C@H](C(=O)O)[C@@H](O)C(=O)O

- Ki [19]: 0.003 µM
Structure (SMILES): C[C@]12CC[C@@H]3c4ccc(O)cc4CC[C@H]3[C@@H]1C[C@H](CCCCCCCCC(=O)OC[C@H]1O[C@@H](n3cnc4c(N)ncnc43)[C@H](O)[C@@H]1O)[C@@H]2O

- Kd [20]: 0.035 nM
Structure (SMILES): COC(=O)N[C@H](C(=O)N[C@@H](Cc1ccccc1)[C@@H](O)CN(Cc1ccc(-c2ccccn2)cc1)NC(=O)[C@@H](NC(=O)OC)C(C)(C)C)C(C)(C)C

- Kd [21]: 8 µM
Structure (SMILES): OC[C@@H](O)[C@@H](O[C@H]1O[C@H](CO)[C@@H](O[C@H]2O[C@H](CO)[C@@H](O[C@H]3O[C@H](CO)[C@@H](O)[C@H](O)[C@H]3O)[C@H](O)[C@H]2O)[C@H](O)[C@H]1O)[C@H](O)[C@@H](O)CO

- Ki [22]: 0.0042 µM
Structure (SMILES): NC(N)=NCCCNC(=O)[C@@H]1CCCCN1C(=O)[C@@H](CC1CCCCC1)NCC(=O)O

- Ki [23]: 1.4 µM
- Ki [5]: 1.2 µM
Structure (SMILES): CCOc1ccc2ccccc2c1C(=O)N[CH2][Al]

- Kd [24]: 0.21 µM
Structure (SMILES): O=c1[nH]cnc2c1ncn2[C@@H]1O[C@H](CO)[C@@H](O)[C@H]1O

- Kd [25]: 2500 µM
Structure (SMILES): CNCCCC[C@H](N)C(=O)O

- Ki [26]: 23000 µM
Structure (SMILES): O=S(=O)(O)CCN1CCOCC1

- Ki [27]: 6 µM
Structure (SMILES): Nc1ncnc2c1ncn2[C@@H]1O[C@H](COP(=O)(O)OP(=O)(O)C(F)(F)CCCC(F)(F)P(=O)(O)O)[C@@H](O)[C@H]1O

- IC50 [28]: 0.033 µM
Structure (SMILES): COc1ccc(S(=O)(=O)N(Cc2cccnc2)c2c(C)cccc2C(=O)NO)cc1

- Ki [29]: 0.0016 µM
Structure (SMILES): CC(C)C[C@H](NC(=O)[C@H](CC(N)=O)NC(=O)[C@@H](NC(=O)[C@@H](N)CCC(=O)O)C(C)C)[C@@H](O)C[C@@H](C)C(=O)N[C@@H](C)C(=O)N[C@@H](CCC(=O)O)C(=O)N[C@@H](Cc1ccccc1)C(=O)O

- IC50 [30]: 0.2 µM
Structure (SMILES): CC(C)NCCCn1c(Sc2cc3c(cc2Br)OCO3)nc2c(N)ncnc21

- Ki [12]: 1.8 µM
Structure (SMILES): O=C(O)CNC(=O)[C@@H](CS)Cc1ccccc1

- Ki [31]: 0.001 µM
Structure (SMILES): Cc1oc(-c2ccccc2)nc1CCOc1ccc(C[C@H](Nc2ccccc2C(=O)c2ccccc2)C(=O)O)cc1

- Ki [32]: 0.3 µM
Structure (SMILES): O=C(O)[C@@H](S)Cc1ccccc1

- Kd [33]: 205 µM
Structure (SMILES): Nc1nc2c(ncn2[C@H]2C[C@H](O)[C@@H](CO)O2)c(=O)[nH]1

- IC50 [34]: 10 µM
Structure (SMILES): COc1cccc(C(N)=O)c1

- IC50 [35]: 800 µM
Structure (SMILES): CC(=O)Nc1cc(S(=O)(=O)O)cc2cc(S(=O)(=O)O)cc(O)c12
